Reference: patent publication US20230087825A1, “SMARCA DEGRADERS AND USES THEREOF” (Kymera Therapeutics, Inc., priority 2019, published 2023)

Amino acid sequences for entries named in this document (tags omitted).
UniProt P51531, whole entry: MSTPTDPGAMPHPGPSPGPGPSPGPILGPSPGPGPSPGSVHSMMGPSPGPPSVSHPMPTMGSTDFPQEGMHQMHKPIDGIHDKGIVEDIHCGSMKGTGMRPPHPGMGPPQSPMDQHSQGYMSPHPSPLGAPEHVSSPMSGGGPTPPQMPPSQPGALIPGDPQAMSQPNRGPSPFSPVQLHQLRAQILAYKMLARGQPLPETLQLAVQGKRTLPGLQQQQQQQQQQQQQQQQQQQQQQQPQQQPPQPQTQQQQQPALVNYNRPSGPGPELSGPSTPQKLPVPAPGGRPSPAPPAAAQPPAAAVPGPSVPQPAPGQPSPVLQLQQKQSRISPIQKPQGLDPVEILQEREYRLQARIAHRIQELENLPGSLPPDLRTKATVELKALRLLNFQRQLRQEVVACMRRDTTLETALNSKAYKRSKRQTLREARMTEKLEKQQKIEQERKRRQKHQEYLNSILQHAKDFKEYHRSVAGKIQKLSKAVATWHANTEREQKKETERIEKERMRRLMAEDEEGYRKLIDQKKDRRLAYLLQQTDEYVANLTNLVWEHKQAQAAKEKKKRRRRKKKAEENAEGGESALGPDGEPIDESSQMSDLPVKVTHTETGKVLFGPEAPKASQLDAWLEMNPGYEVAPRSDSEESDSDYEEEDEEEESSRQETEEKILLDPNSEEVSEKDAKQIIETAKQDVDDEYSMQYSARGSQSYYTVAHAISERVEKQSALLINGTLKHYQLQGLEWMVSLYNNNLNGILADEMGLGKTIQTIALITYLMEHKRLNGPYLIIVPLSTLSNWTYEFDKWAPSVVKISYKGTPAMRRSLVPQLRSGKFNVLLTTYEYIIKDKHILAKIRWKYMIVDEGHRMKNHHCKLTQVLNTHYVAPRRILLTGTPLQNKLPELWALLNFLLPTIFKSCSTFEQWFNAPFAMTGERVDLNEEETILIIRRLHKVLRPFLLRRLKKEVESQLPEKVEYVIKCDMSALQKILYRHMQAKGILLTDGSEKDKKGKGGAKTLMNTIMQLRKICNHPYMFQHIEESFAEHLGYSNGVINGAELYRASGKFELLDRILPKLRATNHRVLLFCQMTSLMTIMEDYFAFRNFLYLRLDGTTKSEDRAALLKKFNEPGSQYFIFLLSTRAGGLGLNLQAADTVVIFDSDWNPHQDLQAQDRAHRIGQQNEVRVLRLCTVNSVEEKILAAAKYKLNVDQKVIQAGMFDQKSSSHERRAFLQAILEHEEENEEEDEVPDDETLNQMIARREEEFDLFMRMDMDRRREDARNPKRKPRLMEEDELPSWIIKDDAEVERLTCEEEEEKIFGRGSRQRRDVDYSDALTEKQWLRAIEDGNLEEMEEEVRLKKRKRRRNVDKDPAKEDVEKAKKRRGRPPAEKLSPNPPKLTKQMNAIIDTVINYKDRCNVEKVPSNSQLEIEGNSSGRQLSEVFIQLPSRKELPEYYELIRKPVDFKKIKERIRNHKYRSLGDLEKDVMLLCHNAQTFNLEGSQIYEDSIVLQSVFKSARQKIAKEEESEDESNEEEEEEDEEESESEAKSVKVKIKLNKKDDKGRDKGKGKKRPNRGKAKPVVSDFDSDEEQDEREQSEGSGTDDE

Target: SMARCA2 (Homo sapiens, UniProt P51531)
Assay: MSD SMARCA2 degradation in NCI-H1299 cell line
Details: NCI-H1299 cells, percentage of SMARCA2 degradation after 24 hours

Compound | SMARCA2 MSD H1299 degradation 24 h: Average Dmax % (tested form: HCl) | SMARCA2 MSD H1299 degradation 24 h: Average Dmax %
Nc1nnc(-c2ccccc2O)cc1N1CC2CCC(C1)N2c1ncc(C2CCN(CCCc3ccc4c(c3)c3cccnc3n4C3CCC(=O)NC3=O)CC2)cn1 (centres unmarked) | A (A (>90% degradation)) | –
Nc1nnc(-c2ccccc2O)cc1-c1cnn(C2CCN(CCCCc3ccc4c(c3)c3cccnc3n4C3CCC(=O)NC3=O)CC2)c1 (centres unmarked) | – | A (A (>90% degradation))
